Measured values reported in ChEMBL document CHEMBL1128243, “Three-dimensional quantitative structure-activity relationships of sulfonamide endothelin inhibitors” (J Med Chem, 1995).

Protein sequences, listed by entry. Tags and fused reporters are not part of them.
UniProt P26684, whole entry: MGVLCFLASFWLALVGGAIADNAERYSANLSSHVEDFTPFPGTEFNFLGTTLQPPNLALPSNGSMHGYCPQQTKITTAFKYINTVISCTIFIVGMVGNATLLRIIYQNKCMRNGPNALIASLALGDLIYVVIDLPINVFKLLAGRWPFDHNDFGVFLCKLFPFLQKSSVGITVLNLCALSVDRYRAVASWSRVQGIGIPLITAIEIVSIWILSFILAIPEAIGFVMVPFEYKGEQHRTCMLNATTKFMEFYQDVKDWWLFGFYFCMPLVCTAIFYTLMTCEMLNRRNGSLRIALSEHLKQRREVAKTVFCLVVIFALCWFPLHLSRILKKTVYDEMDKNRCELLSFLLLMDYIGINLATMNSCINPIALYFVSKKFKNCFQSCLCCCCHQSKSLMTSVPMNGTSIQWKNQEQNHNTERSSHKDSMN

Target: Endothelin-1 receptor (Rattus norvegicus, UniProt P26684)
Assay: Inhibition of [125I]endothelin-l binding to endothelin A receptor of rat thoracic aorta smooth muscle cells
Assay type: tissue-based
Outline: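 Membranes from A10 rat thoracic aorta smooth muscle cells (cultured, trypsin-detached, stored at -70 °C, then thawed, homogenized and centrifuged to a membrane pellet). Samples filtered through glass fiber filters and washed, then filter-retained radioactivity counted.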

Compound | IC50
Cc1noc(NS(=O)(=O)c2cccc3c(O)cccc23)c1C | 68 nM
Cc1cc(NS(=O)(=O)c2ccc(N)cc2)no1 [SULFAMETHOXAZOLE] | 4000 nM
